Test results taken from patent US8618147B2, “Modified macrophage migration inhibitory factor inhibitors” (The Feinstein Institute for Medical Research, priority 2006, dated 2013).

Protein sequences, listed by entry. Tags and fused reporters are not part of them. Residues count along the entry.
UniProt P14174, 2-115 limits assumed: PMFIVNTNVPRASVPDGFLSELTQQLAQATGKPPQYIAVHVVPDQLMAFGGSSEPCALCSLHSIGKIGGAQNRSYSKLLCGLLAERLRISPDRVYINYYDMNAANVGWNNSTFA

Target: MIF (Homo sapiens (Human), UniProt P14174)
Assay: MIF dopachrome tautomerase assay
Format: biochemical
Conditions: potency relative to ISO-1

CC(C)(C)COC(=O)CC1CC(c2ccc(O)cc2)=NO1 (stereo not shown)
fold more potent than ISO-1: about ten
